What is called IC50 is the midpoint of a concentration-inhibition curve.

Chains of the proteins cited; added tags and fusions are not shown.
UniProt Q86SK9, whole entry: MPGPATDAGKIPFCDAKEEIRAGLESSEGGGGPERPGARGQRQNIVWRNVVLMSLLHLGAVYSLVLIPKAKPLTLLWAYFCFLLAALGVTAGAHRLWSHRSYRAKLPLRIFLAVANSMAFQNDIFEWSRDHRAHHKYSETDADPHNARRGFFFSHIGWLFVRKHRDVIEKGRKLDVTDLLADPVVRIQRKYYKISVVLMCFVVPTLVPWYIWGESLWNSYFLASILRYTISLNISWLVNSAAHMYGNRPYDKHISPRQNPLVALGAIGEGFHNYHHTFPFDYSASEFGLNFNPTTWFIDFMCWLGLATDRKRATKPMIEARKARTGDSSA
UniProt O00767, whole entry: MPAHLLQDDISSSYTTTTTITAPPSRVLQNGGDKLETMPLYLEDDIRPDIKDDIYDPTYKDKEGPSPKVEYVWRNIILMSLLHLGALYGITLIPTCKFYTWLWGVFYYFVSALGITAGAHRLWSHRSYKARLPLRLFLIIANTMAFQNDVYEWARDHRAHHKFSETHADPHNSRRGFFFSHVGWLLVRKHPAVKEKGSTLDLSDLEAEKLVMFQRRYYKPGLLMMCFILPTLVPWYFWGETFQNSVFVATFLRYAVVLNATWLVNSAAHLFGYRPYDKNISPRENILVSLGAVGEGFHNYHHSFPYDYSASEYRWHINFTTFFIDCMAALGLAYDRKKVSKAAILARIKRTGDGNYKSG

The text below walks through data of US10919885B2, “Compounds and uses thereof” (Yumanity Therapeutics, Inc., priority 2018, dated 2021).

In one experiment the target is human SCD5 (Homo sapiens (Human), UniProt Q86SK9). The experiment can be described thus: Yeast growth assay, strain expressing human SCD5 as the sole desaturase (reduced growth as surrogate for SCD inhibition). The class given is cell-based. Conditions: read-out: SCD5 IC50; yeast with OLE1 deleted expressing human SCD5 from a plasmid; growth read as OD600 after 40 h at 30° C.; top drug concentration […].

A further experiment deals with human SCD1 (Homo sapiens (Human), UniProt O00767). The experiment can be described thus: Yeast growth assay, strain expressing human SCD1 as the sole desaturase (reduced growth as surrogate for SCD inhibition). The class given is cell-based. The settings on record: read-out: SCD1 IC50; yeast with OLE1 deleted expressing human SCD1 from a plasmid; growth read as OD600 after 40 h at 30° C.; top drug concentration […].

SMILES strings stand for the structures. Bounds are passed on as bounds.

Consider `O=C(Nc1cn[nH]c1)c1cc(-c2ccco2)on1`, for which the values for the IC50 at human SCD5 and at human SCD1 were 21.5 µM and over 45 µM, respectively.

In the case of `O=C(Nc1cn[nH]c1)c1cc(-c2ccccc2)on1`, the IC50 at human SCD5 and at human SCD1 was over 45 µM throughout.
